Results reported in patent publication US20220381657A1, “METHOD FOR PREPARING BIOLOGICAL MATERIAL HAVING EXCELLENT LIGHT-TRANSMITTING PROPERTY” (RIKEN, priority 2016, published 2022).
Counter-ions that a name gives are not always drawn.

Tested on: not listed separately
Assay: Refractive index of high-concentration aqueous solution
Assay type: physicochemical
Details: not given

Compound | RI
Hydrazine carbonate [#1052] | 1.4799

Biological target: EGFP (Aequorea victoria, UniProt P42212, F64L/H231L/S65T)
Assay: not given
Assay type: biochemical
Details: Table 3

Compound | 2nd quenching assay EGFP fluorescence
Hydrazine carbonate [#1052] | quench free

Same assay, conditions: stated in the description

Compound | retention of fluorescence of a fluorescent protein
Hydrazine carbonate [#1052] | allowing retention of fluorescence of a fluorescent protein

Tested on: not listed separately
Assay: 1st RI evaluation assay: refractive index at 589 nm of 10 wt % aqueous solution
Assay type: physicochemical
Details: not given

Compound | 1st RI evaluation assay RI of 10% chemical
NCCCNCCCN [#0785, 3,3′-Diamino-dipropylamine] | 1.3502
Cc1cc(=O)n(-c2ccccc2)n1C [#0640, 2,3-Dimethyl-1-phenyl-5-pyrazolone] | 1.3549

Same assay, conditions: Table 3; 10 wt % aqueous solution, 589 nm

Compound | 1st RI evaluation assay RI of 10% chemical
Cc1cc[n+]([O-])cc1 [#1145, 4- Methylpyridine N-oxide] | 1.3538
NC[C@H](O)[C@@H](O)[C@H](O)[C@H](O)CO [#0956, D-Glucamine, reference compound] | 1.3475
OCC1O[C@@H](O[C@]2(CO)O[C@H](CO)C(O)C2O)C(O)C(O)[C@@H]1O (stereo partly drawn) [D-(+)-Sucrose, reference compound] | 1.3472
NCCN1CCNCC1 [#0338, N-(2-Aminoethyl) piperazine] | 1.3507
CC(=O)N(CC(O)CO)c1c(I)c(C(=O)NCC(O)CO)c(I)c(C(=O)NCC(O)CO)c1I (stereo not shown) [Histodenz ™, reference compound] | 1.3490
CN(C)CCSC(=N)N [#0830, S-[2-(Dimethyl-amino)ethyl] isothiourea-dihydrochloride] | 1.3527
CN(C)C(=O)Oc1cccc([N+](C)(C)C)c1 [#0864, Neostigmine bromide] | 1.3503
CN(C)C(=O)c1ccccc1 [#0788, N,N- Dimethyl- benzamide] | 1.3505
CCCC[n+]1ccccc1.[Br-] [#0315, 1-Butyl-pyridinium bromide] | 1.3504
Cc1cccc(C)c1NC1=NCCCS1.Cl [#1612, Xylazine hydrochloride] | 1.3519
CN(C)CCSSCCN(C)C [#0299, Bis(2-dimethyl-aminoethyl) disulfide dihydrochloride] | 1.3523
C1CCC2=NCCCN2CC1.O=C1NC(=O)c2ccccc21 [#1181, Phthalimide DBU salt] | 1.3526
CCCC[n+]1ccccc1.[Cl-] [#0415, 1-Butyl-pyridinium chloride] | 1.3505
C[N+](C)(Cc1ccccc1)c1ccccc1.[Cl-] [#0450, Benzyl- dimethyl- phenyl- ammonium chloride] | 1.3525
[O-][n+]1ccccc1 [#1078, Pyridine N- oxide] | 1.3518
CNCC(O)c1cccc(O)c1.Cl (racemic) [#1142, DL- Phenylephrine hydrochloride] | 1.3539
Cc1cccc[n+]1[O-] [#1140, 2-Methyl-pyridine N-oxide] | 1.3511
CNC(=O)c1cccnc1 [#1283, N-Methyl- nicotinamide] | 1.3522
CCN(CC)C(=O)c1cccnc1 [#0609, N,N-Diethyl- nicotinamide] | 1.3502
OCCNCc1ccccc1 [#0389, N-Benzyl- ethanolamine] | 1.3524
NCc1cccnc1 [#1102, 3-Picolylamine] | 1.3527
Cc1ccc(C(=O)C(C)CN2CCCCC2)cc1.Cl (stereo not shown) [#1392, Tolperisone hydrochloride] | 1.3522
CCCC[N+](CCCC)(CCCC)Cc1ccccc1.[Cl-] [#0307, Benzyltributyl- ammonium chloride] | 1.3507

Tested on: mouse kidney
Assay: Refractive index adjustment of delipidated mouse kidney (transmissive image, transmittance)
Details: compared with 70 wt % Histodenz and 70 wt % sucrose solutions

Compound | appearance and transmittance of mouse kidney after refractive index adjustment
Cc1cc(=O)n(-c2ccccc2)n1C [#0640, 2,3-Dimethyl-1-phenyl-5-pyrazolone] | better results

Tested on: fixed brain tissue suspension
Assay: 1st delipidation assay: solubilization of fixed brain tissue suspension, turbidity at 600 nm
Design: species or system mice
Details: Table 1; 10 wt % chemical, fixed mouse brain suspension, 37° C. overnight; PBS = 1.000

Compound | 1st delipidation assay Relative OD600
CC(CN)CCCN (stereo not shown) [#1267, 2-Methyl-1,5-diaminopentane] | 0.244
C[N+](C)(C)Cc1ccccc1.[OH-] [#0387, Benzyltrimethyl- ammonium Hydroxide] | 0.258
